According to PubChem BioAssay (Tox21):
Values joined by “and” are separate entries in the source; they are usually repeats but may differ in a detail not shown here. Identical values can stand only once. The entries are a selection whose mix differs from that of the whole data set. Records with an inconclusive call do not appear. Active and inactive are the calls of the source. Calls follow the shape of the full dose curve.

Protein sequences, listed by entry. Tags and fused reporters are not part of them.
UniProt P28223, whole entry, looked up: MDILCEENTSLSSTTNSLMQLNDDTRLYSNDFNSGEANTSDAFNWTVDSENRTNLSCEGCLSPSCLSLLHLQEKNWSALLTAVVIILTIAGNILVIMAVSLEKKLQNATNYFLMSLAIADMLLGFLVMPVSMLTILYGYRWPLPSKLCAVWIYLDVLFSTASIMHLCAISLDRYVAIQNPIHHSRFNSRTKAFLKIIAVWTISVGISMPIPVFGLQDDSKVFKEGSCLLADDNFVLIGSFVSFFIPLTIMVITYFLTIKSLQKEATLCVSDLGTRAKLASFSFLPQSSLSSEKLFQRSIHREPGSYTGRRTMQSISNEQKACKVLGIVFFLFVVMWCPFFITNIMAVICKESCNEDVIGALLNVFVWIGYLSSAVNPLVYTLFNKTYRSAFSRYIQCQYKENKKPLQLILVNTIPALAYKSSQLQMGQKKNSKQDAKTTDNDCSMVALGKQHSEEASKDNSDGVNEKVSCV

target: 5-hydroxytryptamine receptor 2A (Homo sapiens) (UniProt P28223); assay: 5-hydroxytryptamine receptor 2A (HTR2A) small molecule antagonists, cell-based qHTS assay (AID 1963586); conditions: HTR2A-CHO cells, DOI-induced calcium flux, fluorescence; at 61.5 µM (top of the series) unless noted; also: nearly all actives have a fitted effect of over 45% in size
Source text: National Center for Advancing Translational Sciences [NCATS]
Division of Preclinical Innovation [DPI]
U.S. Environmental Protection Agency [EPA]
National Institutes of Environmental Health Sciences [NIEHS]
National Toxicology Program [NTP]
U.S. Food and Drug Administration [FDA]
The HTR2A receptor is a subtype of the 5-HT2 receptor that belongs to the serotonin receptor family and is a G protein-coupled receptor (GPCR). The HTR2A-CHO cell line stably expressing human 5-hydroxytryptamine receptor 2A (HTR2A) can be used for screening antagonists of interactions between 5-HT2 and its ligands. The HTR2A-CHO calcium flux assay is a homogeneous fluorescence-based assay for detecting the intracellular calcium level using FDSS kinetic plate reader system.
Tox21 Assay Protocol Summary:
HTR2A-CHO cells were dispensed at 2000 cells/3uL/well in 1536-well black-clear bottom plates using a Multidrop Dispenser. After the assay plates were incubated at a 37 C/5% CO2 incubator for 18 h, 3 uL of Dye Loading Buffer was transferred to the assay plate by a Flying Reagent Dispenser. The assay plates were incubated at 37 C for 1h. For antagonist mode, 23 nL of compounds dissolved in DMSO, positive controls or DMSO only was transferred to the assay plate by a pin tool. After 5 min incubation at room temperature, 1.5 uL of 4-Iodo-2,5-dimethoxy-alpha-methylbenzeneethanamine hydrochloride (DOI) at 4nM was added to each well. The fluorescence intensity in the plates was measured using FDSS 7000EX kinetic plate reader for 3 min at 1 sec intervals.
% is scaled to controls: 0 for no effect and ±100 for the full control effect.

Compound | activity, negative = inhibition
O=C1C2CC=CCC2C(=O)N1SC(Cl)(Cl)C(Cl)Cl (centres undefined) | inactive: -33.7% and inactive: -3.23%
CC(C)CCCCCCCOP(OCCCCCCCC(C)C)Oc1ccccc1 | inactive: 13.8%
Cc1cc([N+](=O)[O-])c(O)c([N+](=O)[O-])c1 | inactive: -19.3%
O=[p+]1oc2ccccc2c2ccccc21 (centres undefined) | inactive: 25.1%
N#CSc1ccc([N+](=O)[O-])cc1[N+](=O)[O-] | inactive: 0.82%
COC(=O)Cl | inactive: 0.0561%
CCC(C)(OOC(C)(C)C)OOC(C)(C)C | inactive: 3.58% [at 12.7 µM]
NC(=O)Nc1ccc([As](=O)(O)O)cc1 | inactive: -13.1%
O=[As]c1ccccc1 (centres undefined) | inactive: 0.956%
CCCCOP(OCCCC)OCCCC | inactive: -1.78%
CC(C)OP(=S)(OC(C)C)SCCNS(=O)(=O)c1ccccc1 | inactive: 14.6%
O=C(Cl)OCCOC(=O)Cl | inactive: -3.4%
O=[N+]([O-])c1ccc([N+](=O)[O-])cc1 | inactive: -10.6%
ClP(Cl)c1ccccc1 | inactive: 3.97%
COP(=S)(Cl)OC | inactive: -2%
CN(C(=O)Cc1cccc2occc12)[C@H]1CC[C@@]2(CCCO2)C[C@@H]1N1CCCC1 | inactive: 20.2%
CN(N=O)C(=N)N[N+](=O)[O-] | inactive: 81.7%
O=P(Cl)(Oc1ccccc1)Oc1ccccc1 | inactive: -8.36%
CCOP(=S)(CC)Sc1ccccc1 (centres undefined) | inactive: -3.28%
CCCCO[P+](=O)OCCCC | inactive: 2.96% and inactive: -0.588%
CCCCC(CC)CO[P+](=O)OCC(CC)CCCC (centres undefined) | inactive: 1.78%
O=C(Cl)Oc1ccccc1 | inactive: 2.42%
O=[N+]([O-])c1ccc(S(=O)(=O)O)c([N+](=O)[O-])c1 | inactive: 25.2%
O=[P+](Oc1ccccc1)Oc1ccccc1 | inactive: -39.3%
CCOC(=O)Cl | inactive: -2.11%
Cc1cc([N+](=O)[O-])cc([N+](=O)[O-])c1O | inactive: 6.34%
CN(C(=O)Cc1ccccc1)[C@H]1CC[C@@]2(CCCO2)C[C@@H]1N1CCCC1 | inactive: -1.61% [at 28.5 µM]
CCCCCCCCCCCCCC[P+](CCCCCC)(CCCCCC)CCCCCC | inactive: 21.3%
O=P(Cl)(Cl)c1ccccc1 | inactive: 8.86%
